## Ab-14 light chain CDR variants: yeast mating affinities

The measurements come from Li et al. 2023 (doi:10.1038/s41467-023-39022-2) through the FLAb antibody collection.

All variants were tested on one target, the spike HR2 peptide PDVDLGDISGINAS (SARS-CoV-2).

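The starting antibody came from a phage panning campaign against this peptide. Designed CDR sequences, proposed from the first random library and measured here. Several design methods are mixed in this list. Affinity was read by AlphaSeq, a pooled yeast mating assay with surface-displayed partners. The frequency of each diploid, read from paired DNA barcodes, reflects how well the two displayed proteins bind. Each replicate has its own calibration line, from reference interactions of the BCL2 family. There are six technical replicates.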

The variants keep the heavy chain, the linker and the frameworks of Ab-14 (scFv order VH, three GGGGS repeats, VL).
VH: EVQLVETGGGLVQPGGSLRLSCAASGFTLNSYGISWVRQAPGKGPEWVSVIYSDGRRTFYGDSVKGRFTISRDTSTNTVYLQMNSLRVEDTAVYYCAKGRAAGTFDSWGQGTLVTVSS
VL: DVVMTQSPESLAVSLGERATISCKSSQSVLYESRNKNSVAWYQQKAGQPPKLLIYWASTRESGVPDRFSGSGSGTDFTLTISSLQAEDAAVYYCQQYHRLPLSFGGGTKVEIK

The parent's light chain CDRs are KSSQSVLYESRNKNSVA, WASTRES, QQYHRLPLS; each variant's own CDRs replace them letter for letter. Values are apparent Kd, the geometric mean of the replicates that gave a signal; lower means stronger binding. "not detected" means that the variant was in the library but no mating with the target was seen in any replicate; the authors take this as a sign of poor binding, and no number exists.

CDR-L1 | CDR-L2 | CDR-L3 | Kd (apparent) | replicates with signal | control signals
KLSISYLFEQLEKNSIA | ENSTREK | QHYHRLPLS | 220 nM | 1 of 6 | 0 of 18
KSSMSFLYESRNKNSVA | GASTRES | QQYHRLPLS | 1.2 nM | 6 of 6 | 6 of 18
KSMQEWEGQSRNKNSVA | HASKRES | QQYHRLPLS | 8.4 nM | 6 of 6 | 3 of 18
KVSPSQEYWSRNKQSVA | HASLREE | QQYHRLPLS | 6.4 nM | 6 of 6 | 2 of 18
QVSQSHLYESRNKNSVA | EASTREQ | QQYHRLPLS | 570 pM | 6 of 6 | 0 of 18
KLYSNVGTMSLNKQSIA | DMERRED | QQYHRLPLS | 1.0 nM | 6 of 6 | 1 of 18
MISQLYNMGSFAINSVA | QASVRNE | QQYDRLPLQ | 8.9 nM | 6 of 6 | 1 of 18
KSSQSVDYEIRNVNSVA | WASTRES | QQYQRLPLS | 83 nM | 5 of 6 | 0 of 18
KSPQGVLYESRVKNSVA | GASTRES | QQYHRLPLS | 1.5 nM | 6 of 6 | 0 of 18
VLPFPTMRFDVQGNSIA | NAVMRME | QQYERLPLT | 7.2 nM | 6 of 6 | 1 of 18
KSSQSVLYESRNKNSVA | HASTRES | QQYHRLPLS | 5.6 nM | 6 of 6 | 1 of 18
KVSQSQLYESRNKNNVA | HASTRES | QQYHRLPLS | 640 pM | 6 of 6 | 0 of 18
KSSQAQLVESRNKNSVA | NASTRES | QQYHRLPLS | 810 pM | 6 of 6 | 0 of 18
KSSQSVLYESRNKNSVA | HASTTES | QQYHRLPLS | 30 nM | 6 of 6 | 1 of 18
KVSEFMKGLMSRQDSIA | DNNTRGS | QQYDRLPLS | 76 nM | 6 of 6 | 0 of 18
KLMQGDEYESRNKNSVA | NASKREE | QQYHRLPLS | 410 pM | 6 of 6 | 0 of 18
KLLQTVQYGSRALNSVA | QMETRED | QQYHRLPLS | 1.6 nM | 6 of 6 | 0 of 18
KSLQSVLYESRNFNSVA | HASTRED | QQYHRLPLS | 20 nM | 6 of 6 | 1 of 18
KIGMTLNTLYEKKNNVA | DLVMREM | QQYHRLPLS | 4.3 nM | 6 of 6 | 0 of 18
HMSMLTLGGMRQRNSVA | QMTTREN | QQYDHLPLS | 7.6 nM | 6 of 6 | 1 of 18
TSSQSVMLESRNKNSVA | NASTRES | QQYHRLPLS | 3.0 nM | 6 of 6 | 1 of 18
KLSQSVLYESRNKNPIA | WASTREL | QQEHRLPLS | not detected | 0 of 6 | 0 of 18
KSSWSGLYESRMKNSVA | EASTRES | QQYHRLPLS | not detected | 0 of 6 | 0 of 18
KVSIGVWGGDRNKNSVA | DASTRES | QQYHRLPLS | 2.1 nM | 6 of 6 | 1 of 18
VLQQSVLPESRNKNSVA | EASLRLS | QQYHRLPLS | 2.7 nM | 6 of 6 | 1 of 18
KISMLHNQTFEQSNNVA | EMVTREN | QQYHRLPLS | 10 nM | 6 of 6 | 1 of 18
KLTHVTGTEKVHGNNVA | EMETRER | QQYNRLPLA | 6.0 nM | 6 of 6 | 0 of 18
KLQQSVLYESRNKNSVA | NASTRLW | QQYHRLPLS | 1.0 nM | 6 of 6 | 0 of 18
KSSQSVLYEYRNKNSVA | WASTRES | QQYHRLPLS | 550 nM | 2 of 6 | 0 of 18
TLYGLSMSMSKNKNNVA | EMTTREK | QQYDRLPLM | 1.6 nM | 6 of 6 | 0 of 18
KLSMSVLYEDRHSNSVA | NASKRFM | QQYHRLPLS | 5.1 nM | 6 of 6 | 2 of 18
NLSISMLHESINKHSVA | EVRTREN | QQYDRLPLS | 330 nM | 2 of 6 | 0 of 18
KLENSTLYESRQKNSVA | WASTRES | QQYHRLPLS | 18 nM | 6 of 6 | 1 of 18
KISQAVLYEDRNKNSVA | NANTRES | QQYHRLPLS | 530 pM | 6 of 6 | 0 of 18
KGSQSVLYEERNKNSVA | WATTRES | QQYHRLPLS | 55 nM | 4 of 6 | 0 of 18
KSSQSVLYESRNKNSVA | WASTREK | QQYHRLPLS | 77 nM | 6 of 6 | 2 of 18
KHSPSVEYESRDKNSVA | MASTRMS | QQYHRLPLS | 4.0 nM | 6 of 6 | 0 of 18
KFSQSWLYEQRQVNSVA | NASYRLL | QQYHRLPLS | 1.8 nM | 6 of 6 | 0 of 18
VLAMESYGKSRHESNIA | GANMLAQ | QQYARLPFA | 890 pM | 6 of 6 | 0 of 18
KLSQAVWYESRNKNSVA | EASLREQ | QQYHRLPLS | 4.3 nM | 6 of 6 | 2 of 18
KLDQSVQGGSRNKNSVA | HANQRES | QQYHRLPLY | 4.1 nM | 6 of 6 | 3 of 18
KSSQSVLYEERNEESVA | HASTREL | QQYSRLPLS | 14 nM | 6 of 6 | 1 of 18
ALSQSWLYESRNKNSVA | NASTRES | QQYHRLPLS | 21 nM | 4 of 6 | 0 of 18
KLSQSVLYESRNKNSVA | WASTREN | QQYHRLPLS | 780 pM | 6 of 6 | 0 of 18
NISQSWLYESRNKNSVA | GGNTRES | QQYHRLPLS | 1.4 nM | 6 of 6 | 0 of 18

Of ten entries with the parent sequence, four were seen in most replicates (averages 2.2 nM to 240 nM), three in one and three in none, so single entries are noisy. A sequence measured in both rounds can read differently, since the two assays cover different ranges. The authors averaged sequences with at least three values out of six and counted those with two or fewer as poor binders. As a blank, each scFv also met three strains without target: over all light chain designs, 4% of these pairings were detected, typically at 430 nM and seldom below 38 nM. For each scFv, signals with the empty controls are counted beside the result.